{"source": "ChEMBL document CHEMBL5029173", "about": "“Differential BET Bromodomain Inhibition by Dihydropteridinone and Pyrimidodiazepinone Kinase Inhibitors” (J Med Chem, 2021)", "molecular_target": "Bromodomain-containing protein 4 (Homo sapiens, UniProt O60885)", "data": [{"smiles": "CC[C@@H]1C(=O)N(C)c2cnc(Nc3ccc(C(=O)N[C@H]4CC[C@H](N5CCN(CC6CC6)CC5)CC4)cc3OC)nc2N1C(C)C", "note": "[VOLASERTIB]", "values": [{"measurement": "ΔTm", "value": 8.6, "unit": "°C"}]}]}
